US9556229B2, “Modification of peptides using a bis(thioether)arylbridge approach” (priority 2012, dated 2017)

Test system: HCT116 colorectal cancer cells

SMILES: C[C@@H](O)[C@H](N)C(=O)N[C@@H](CO)C(=O)N[C@@H](Cc1ccccc1)C(=O)N[C@@H](CCCNC(=N)N)C(=O)N[C@@H](CCCNC(=N)N)C(=O)N[C@@H](Cc1ccc(O)cc1)C(=O)N[C@H]1CSCc2cccc(c2)CSC[C@H](C(=O)N[C@@H](CO)C(=O)N2CCC[C@H]2C(N)=O)NC(=O)[C@H](CCCNC(=N)N)NC(=O)[C@H](CCCNC(=N)N)NC1=O [ArB14Em]
- EC50: 114 µM
